Biological target: T1, Tau peptide A6940 (biotin (bound via biotin to a streptavidin biosensor in the Octet assay; position of the biotin not stated))
T1 peptide: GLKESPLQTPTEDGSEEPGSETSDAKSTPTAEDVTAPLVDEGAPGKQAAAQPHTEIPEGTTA
Experiment: ITC

- Kd: 880 nM
B1: CBTAU-28.1 wild type (antibody, V domains shown)
VH: QVQLQQSGAEVKKPGESLKISCEASGYSFTNYWIGWVRQMPGKGLEWMGIIYPGDSDTRYSPPFQGQVTITADRSITTAYLEWSSLKASDTAMYYCARVGRPSKGGWFDPWGQGTLVTVSS
VL: DIQMTQSPDSLAVSLGERATINCESSQTLLYSSNEKNYLAWYQQKPGQPPKLLISWASTPESGVPDRFSGSGSGTSFTLTISSLQAEDVAVYYCQQYYNSPYTFGQGTRLEIK

From patent US20200369754A1 (published 2020)
